In patent US6858018B1:
Some compounds may have been tested in ways that are not shown here.

Assay: in vitro iontophoretic delivery through excised porcine skin in flow-through cells

In the case of remifentanil hydrochloride, the Flux (Exp #3, 10 mg/ml in water, 500 uA, 3 mg, 24.00 hrs) is reported as 0.13 μg/min/cm^2, the Flux (Exp #3, 10 mg/ml in water, 500 uA, 3 mg, −1.00 hrs) is reported as 0.00 μg/min/cm^2 and the Flux (Exp #4, 2.5 mg/ml in water, 500 uA, 0.75 mg, 0.00 hrs) is reported as 0.00 μg/min/cm^2. For the same substance, the Flux (Exp #4, 2.5 mg/ml in water, 500 uA, 0.75 mg, 1.00 hrs) was 0.00 μg/min/cm^2, the Flux (Exp #4, 2.5 mg/ml in water, 500 uA, 0.75 mg, 2.00 hrs) was 0.00 μg/min/cm^2 and the Flux (Exp #4, 2.5 mg/ml in water, 500 uA, 0.75 mg, 3.00 hrs) was 0.01 μg/min/cm^2. It also gave a Flux (Exp #4, 2.5 mg/ml in water, 500 uA, 0.75 mg, 4.00 hrs) of 0.03 μg/min/cm^2, a Flux (Exp #4, 2.5 mg/ml in water, 500 uA, 0.75 mg, 5.00 hrs) of 0.05 μg/min/cm^2 and a Flux (Exp #4, 2.5 mg/ml in water, 500 uA, 0.75 mg, 6.00 hrs) of 0.09 μg/min/cm^2. It also gave a Flux (Exp #4, 2.5 mg/ml in water, 500 uA, 0.75 mg, 7.00 hrs) of 0.11 μg/min/cm^2, a Flux (Exp #4, 2.5 mg/ml in water, 500 uA, 0.75 mg, 8.00 hrs) of 0.13 μg/min/cm^2 and a Flux (Exp #4, 2.5 mg/ml in water, 500 uA, 0.75 mg, 9.00 hrs) of 0.14 μg/min/cm^2. It also gave a Flux (Exp #4, 2.5 mg/ml in water, 500 uA, 0.75 mg, 10.00 hrs) of 0.15 μg/min/cm^2, a Flux (Exp #4, 2.5 mg/ml in water, 500 uA, 0.75 mg, 11.00 hrs) of 0.155 μg/min/cm^2 and a Flux (Exp #4, 2.5 mg/ml in water, 500 uA, 0.75 mg, 12.00 hrs) of 0.16 μg/min/cm^2. For the same substance, the Flux (Exp #4, 2.5 mg/ml in water, 500 uA, 0.75 mg, 13.00 hrs) was 0.167 μg/min/cm^2, the Flux (Exp #4, 2.5 mg/ml in water, 500 uA, 0.75 mg, 14.00 hrs) was 0.17 μg/min/cm^2 and the Flux (Exp #4, 2.5 mg/ml in water, 500 uA, 0.75 mg, 15.00 hrs) was 0.174 μg/min/cm^2. The Flux (Exp #4, 2.5 mg/ml in water, 500 uA, 0.75 mg, 16.00 hrs) was 0.17 μg/min/cm^2, the Flux (Exp #4, 2.5 mg/ml in water, 500 uA, 0.75 mg, 17.00 hrs) was 0.178 μg/min/cm^2 and the Flux (Exp #4, 2.5 mg/ml in water, 500 uA, 0.75 mg, 18.00 hrs) was 0.18 μg/min/cm^2. The Flux (Exp #4, 2.5 mg/ml in water, 500 uA, 0.75 mg, 19.00 hrs) was 0.178 μg/min/cm^2, the Flux (Exp #4, 2.5 mg/ml in water, 500 uA, 0.75 mg, 20.00 hrs) was 0.18 μg/min/cm^2 and the Flux (Exp #4, 2.5 mg/ml in water, 500 uA, 0.75 mg, 21.00 hrs) was 0.173 μg/min/cm^2. The Flux (Exp #4, 2.5 mg/ml in water, 500 uA, 0.75 mg, 22.00 hrs) was 0.17 μg/min/cm^2, the Flux (Exp #4, 2.5 mg/ml in water, 500 uA, 0.75 mg, 23.00 hrs) was 0.167 μg/min/cm^2 and the Flux (Exp #4, 2.5 mg/ml in water, 500 uA, 0.75 mg, 24.00 hrs) was 0.16 μg/min/cm^2. For the same substance, the Flux (Exp #9, 10 mg/ml in water, 1000 uA, 1 mg, 1.00 hrs) was 0.00 μg/min/cm^2, the Flux (Exp #9, 10 mg/ml in water, 1000 uA, 1 mg, 2.00 hrs) was 0.04 μg/min/cm^2 and the Flux (Exp #9, 10 mg/ml in water, 1000 uA, 1 mg, 3.00 hrs) was 0.06 μg/min/cm^2. It also gave a Flux (Exp #9, 10 mg/ml in water, 1000 uA, 1 mg, 4.00 hrs) of 0.07 μg/min/cm^2, a Flux (Exp #9, 10 mg/ml in water, 1000 uA, 1 mg, 5.00 hrs) of 0.08 μg/min/cm^2 and a Flux (Exp #9, 10 mg/ml in water, 1000 uA, 1 mg, 6.00 hrs) of 0.09 μg/min/cm^2. The Flux (Exp #9, 10 mg/ml in water, 1000 uA, 1 mg, 7.00 hrs) was 0.11 μg/min/cm^2, the Flux (Exp #9, 10 mg/ml in water, 1000 uA, 1 mg, 8.00 hrs) was 0.13 μg/min/cm^2 and the Flux (Exp #9, 10 mg/ml in water, 1000 uA, 1 mg, 9.00 hrs) was 0.14 μg/min/cm^2. The Flux (Exp #9, 10 mg/ml in water, 1000 uA, 1 mg, 10.00 hrs) was 0.16 μg/min/cm^2, the Flux (Exp #9, 10 mg/ml in water, 1000 uA, 1 mg, 11.00 hrs) was 0.19 μg/min/cm^2 and the Flux (Exp #9, 10 mg/ml in water, 1000 uA, 1 mg, 12.00 hrs) was 0.22 μg/min/cm^2. The Flux (Exp #9, 10 mg/ml in water, 1000 uA, 1 mg, 13.00 hrs) was 0.24 μg/min/cm^2, the Flux (Exp #9, 10 mg/ml in water, 1000 uA, 1 mg, 14.00 hrs) was 0.26 μg/min/cm^2 and the Flux (Exp #9, 10 mg/ml in water, 1000 uA, 1 mg, 15.00 hrs) was 0.28 μg/min/cm^2. It also gave a Flux (Exp #9, 10 mg/ml in water, 1000 uA, 1 mg, 16.00 hrs) of 0.30 μg/min/cm^2, a Flux (Exp #9, 10 mg/ml in water, 1000 uA, 1 mg, 17.00 hrs) of 0.33 μg/min/cm^2 and a Flux (Exp #9, 10 mg/ml in water, 1000 uA, 1 mg, 18.00 hrs) of 0.35 μg/min/cm^2. For the same substance, the Flux (Exp #9, 10 mg/ml in water, 1000 uA, 1 mg, 19.00 hrs) was 0.38 μg/min/cm^2, the Flux (Exp #9, 10 mg/ml in water, 1000 uA, 1 mg, 20.00 hrs) was 0.41 μg/min/cm^2 and the Flux (Exp #9, 10 mg/ml in water, 1000 uA, 1 mg, 21.00 hrs) was 0.44 μg/min/cm^2. It also gave a Flux (Exp #9, 10 mg/ml in water, 1000 uA, 1 mg, 22.00 hrs) of 0.46 μg/min/cm^2, a Flux (Exp #9, 10 mg/ml in water, 1000 uA, 1 mg, 23.00 hrs) of 0.48 μg/min/cm^2 and a Flux (Exp #9, 10 mg/ml in water, 1000 uA, 1 mg, 24.00 hrs) of 0.50 μg/min/cm^2. The Flux (Exp #10, 10 mg/ml in water, 100 uA, 1 mg, 0.00 hrs) was 0.00 μg/min/cm^2, the Flux (Exp #10, 10 mg/ml in water, 100 uA, 1 mg, 1.00 hrs) was 0.00 μg/min/cm^2 and the Flux (Exp #10, 10 mg/ml in water, 100 uA, 1 mg, 2.00 hrs) was 0.01 μg/min/cm^2. It also gave a Flux (Exp #10, 10 mg/ml in water, 100 uA, 1 mg, 3.00 hrs) of 0.03 μg/min/cm^2, a Flux (Exp #10, 10 mg/ml in water, 100 uA, 1 mg, 4.00 hrs) of 0.03 μg/min/cm^2 and a Flux (Exp #10, 10 mg/ml in water, 100 uA, 1 mg, 5.00 hrs) of 0.02 μg/min/cm^2. For the same substance, the Flux (Exp #10, 10 mg/ml in water, 100 uA, 1 mg, 6.00 hrs) was 0.02 μg/min/cm^2, the Flux (Exp #10, 10 mg/ml in water, 100 uA, 1 mg, 7.00 hrs) was 0.03 μg/min/cm^2 and the Flux (Exp #10, 10 mg/ml in water, 100 uA, 1 mg, 8.00 hrs) was 0.03 μg/min/cm^2. The Flux (Exp #10, 10 mg/ml in water, 100 uA, 1 mg, 9.00 hrs) was 0.03 μg/min/cm^2, the Flux (Exp #10, 10 mg/ml in water, 100 uA, 1 mg, 10.00 hrs) was 0.02 μg/min/cm^2 and the Flux (Exp #10, 10 mg/ml in water, 100 uA, 1 mg, 11.00 hrs) was 0.03 μg/min/cm^2. The Flux (Exp #10, 10 mg/ml in water, 100 uA, 1 mg, 12.00 hrs) was 0.03 μg/min/cm^2, the Flux (Exp #10, 10 mg/ml in water, 100 uA, 1 mg, 13.00 hrs) was 0.03 μg/min/cm^2 and the Flux (Exp #10, 10 mg/ml in water, 100 uA, 1 mg, 14.00 hrs) was 0.03 μg/min/cm^2. The Flux (Exp #10, 10 mg/ml in water, 100 uA, 1 mg, 15.00 hrs) was 0.03 μg/min/cm^2, the Flux (Exp #10, 10 mg/ml in water, 100 uA, 1 mg, 16.00 hrs) was 0.03 μg/min/cm^2 and the Flux (Exp #10, 10 mg/ml in water, 100 uA, 1 mg, 17.00 hrs) was 0.03 μg/min/cm^2. It also gave a Flux (Exp #10, 10 mg/ml in water, 100 uA, 1 mg, 18.00 hrs) of 0.03 μg/min/cm^2, a Flux (Exp #10, 10 mg/ml in water, 100 uA, 1 mg, 19.00 hrs) of 0.03 μg/min/cm^2 and a Flux (Exp #10, 10 mg/ml in water, 100 uA, 1 mg, 20.00 hrs) of 0.03 μg/min/cm^2. The Flux (Exp #10, 10 mg/ml in water, 100 uA, 1 mg, 21.00 hrs) was 0.03 μg/min/cm^2, the Flux (Exp #10, 10 mg/ml in water, 100 uA, 1 mg, 22.00 hrs) was 0.03 μg/min/cm^2 and the Flux (Exp #10, 10 mg/ml in water, 100 uA, 1 mg, 23.00 hrs) was 0.03 μg/min/cm^2. It also gave a Flux (Exp #10, 10 mg/ml in water, 100 uA, 1 mg, 24.00 hrs) of 0.03 μg/min/cm^2.
